# Numbering of substitutions follows the chain as printed.
# Columns and labels:
# GIPR M67R = target: T1, GIPR M67R (Homo sapiens, UniProt P48546, M67R); test: cAMP accumulation; format: cell-based; parameters: host or cells: HEK293
# T1 sequence (P48546 22-466 M67R): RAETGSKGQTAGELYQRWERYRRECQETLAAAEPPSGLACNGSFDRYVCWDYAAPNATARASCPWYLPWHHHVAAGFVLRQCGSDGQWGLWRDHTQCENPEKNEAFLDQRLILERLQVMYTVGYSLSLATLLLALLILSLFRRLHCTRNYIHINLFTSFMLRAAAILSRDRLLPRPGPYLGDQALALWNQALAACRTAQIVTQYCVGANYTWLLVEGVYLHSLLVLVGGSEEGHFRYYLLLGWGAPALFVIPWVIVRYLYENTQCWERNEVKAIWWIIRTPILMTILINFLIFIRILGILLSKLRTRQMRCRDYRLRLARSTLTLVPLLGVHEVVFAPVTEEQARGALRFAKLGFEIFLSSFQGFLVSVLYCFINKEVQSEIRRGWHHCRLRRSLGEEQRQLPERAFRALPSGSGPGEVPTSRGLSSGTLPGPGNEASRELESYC
# GIPR E461* [1] = target: T2, GIPR E461* (Homo sapiens, UniProt P48546); conditions: HEK293A, 1 µM GIP minus vehicle, n = 4, P = 0.0034
# T2 sequence (P48546 22-460 limits assumed): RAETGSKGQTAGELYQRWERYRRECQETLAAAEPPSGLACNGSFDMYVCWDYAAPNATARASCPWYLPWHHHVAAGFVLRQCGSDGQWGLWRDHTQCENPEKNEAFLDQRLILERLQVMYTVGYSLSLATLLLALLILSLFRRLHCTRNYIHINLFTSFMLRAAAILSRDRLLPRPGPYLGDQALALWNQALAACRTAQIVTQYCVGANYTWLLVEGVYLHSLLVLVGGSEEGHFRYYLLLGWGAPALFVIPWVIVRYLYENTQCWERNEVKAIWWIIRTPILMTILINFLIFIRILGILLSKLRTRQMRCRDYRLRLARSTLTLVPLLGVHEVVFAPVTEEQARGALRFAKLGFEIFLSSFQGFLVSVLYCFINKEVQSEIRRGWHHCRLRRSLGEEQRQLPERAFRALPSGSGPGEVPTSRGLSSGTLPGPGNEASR
# GIPR E461* [2] = target: T2, GIPR E461*; test: cAMP accumulation; format: cell-based; parameters: host or cells: HEK293
# GIPR G449A = target: T3, GIPR G449A (Homo sapiens, UniProt P48546, G449A); test: cAMP accumulation; format: cell-based; parameters: host or cells: HEK293
# T3 sequence (P48546 22-466 G449A): T1 sequence (P48546 22-466 M67R) with R46M, G428A
# GIPR I221M = target: T4, GIPR I221M (Homo sapiens, UniProt P48546, I221M); conditions: GIPR I221M (3.34), mean, n = 3, duplicate
# T4 sequence (P48546 22-466 I221M): T1 sequence (P48546 22-466 M67R) with R46M, I200M
# GIPR I378M = target: T5, GIPR I378M (Homo sapiens, UniProt P48546, I378M)
# T5 sequence (P48546 22-466 I378M): T1 sequence (P48546 22-466 M67R) with R46M, I357M
# GIPR R300W = target: T6, GIPR R300W (Homo sapiens, UniProt P48546, R300W); test: cAMP accumulation; format: cell-based
# T6 construct: host or cells: HEK293
substance,measurement,setting,value
glucose-dependent insulinotropic polypeptide [GIP],cAMP (Emax),"GIPR M67R; HEK293, GIP(1–42) 1 pM–100 nM, 30 min 37 °C, mean of n = 4",18 % of WT GIPR activity
same,logEC50 (cAMP),"GIPR M67R; HEK293, Hill slope 1.0, mean of n = 4",-10.4
same,Mean of ΔBRET,GIPR E461* [1],0.1591
same,cAMP production class,GIPR E461* [2]; E461* (GoFcAMP),more cAMP production
same,cAMP (Emax),"GIPR E461* [2]; E461*, HEK293, GIP(1–42) 1 pM–100 nM, 30 min 37 °C, mean of n = 4",179 % of WT GIPR activity
same,logEC50 (cAMP),"GIPR E461* [2]; E461*, HEK293, Hill slope 1.0, mean of n = 4",-11.1
same,cAMP (Emax),"GIPR G449A; HEK293, GIP(1–42) 1 pM–100 nM, 30 min 37 °C, mean of n = 6",65 % of WT GIPR activity
same,logEC50 (cAMP),"GIPR G449A; HEK293, Hill slope 1.0, mean of n = 6",-11.1
same,logEC50 (Arrestin),GIPR I221M; Hill slope 1.0,-9.4
same,Arrestin (Emax),GIPR I221M; normalized to WT GIPR,20
same,logEC50 (Arrestin),"GIPR I378M; GIPR I378M (7.43), Hill slope 1.0, mean, n = 3, duplicate",-9.1
same,Arrestin (Emax),"GIPR I378M; GIPR I378M (7.43), normalized to WT GIPR, mean, n = 3, duplicate",136
same,β-arrestin recruitment class,GIPR I378M; I378M (GoFarr),more β-arrestin recruitment
same,cAMP (Emax),"GIPR R300W; HEK293, GIP(1–42) 1 pM–100 nM, 30 min 37 °C, mean of n = 3",114 % of WT GIPR activity
same,logEC50 (cAMP),"GIPR R300W; HEK293, Hill slope 1.0, mean of n = 3",-8.2
